Measured values as given in patent US11040026B2, “Muscarinic M1 receptor positive allosteric modulators” (SUVEN LIFE SCIENCES LIMITED, priority 2016, dated 2021).

By UniProt entry, the sequences of proteins in these tests, tags left out.
UniProt P11229, whole entry: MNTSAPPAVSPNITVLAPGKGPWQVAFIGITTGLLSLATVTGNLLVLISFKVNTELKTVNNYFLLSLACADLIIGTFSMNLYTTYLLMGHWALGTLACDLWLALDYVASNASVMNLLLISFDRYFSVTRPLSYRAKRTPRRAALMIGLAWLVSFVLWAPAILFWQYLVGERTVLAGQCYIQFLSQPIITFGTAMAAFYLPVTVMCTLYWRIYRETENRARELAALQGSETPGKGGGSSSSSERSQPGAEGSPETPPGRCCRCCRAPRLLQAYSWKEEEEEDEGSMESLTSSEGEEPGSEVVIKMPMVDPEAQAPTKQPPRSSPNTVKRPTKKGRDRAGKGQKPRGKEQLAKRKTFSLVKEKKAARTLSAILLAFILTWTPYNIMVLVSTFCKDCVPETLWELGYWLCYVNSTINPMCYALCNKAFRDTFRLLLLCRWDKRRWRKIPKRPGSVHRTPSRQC

Target: recombinant human Muscarinic M1 receptor (Homo sapiens, UniProt P11229)
Assay: Allosteric potency EC50 for muscarinic M1 receptor (CHO pCRE-Luc reporter assay)
Conditions: in presence of EC20 of acetylcholine; CHO cells, luciferase reporter, 4 hours
Procedure: Determination of Allosteric Potency EC50 Values for Muscarinic M1 Receptor:
A stable CHO cell line expressing recombinant human Muscarinic M1 receptor and pCRE-Luc reporter system was used for cell-based assay. The assay offers a non-radioactive based approach to determine binding of a compound to GPCRs. In this specific assay, the level of intracellular cyclic AMP which is modulated by activation or inhibition of the receptor is measured. The recombinant cells harbor luciferase reporter gene under the control of cyclic AMP response element.
The above cells were grown in 96 well clear bottom white plates in Hams F12 medium containing 10% fetal bovine serum (FBS). Prior to the addition of compounds or standard agonist, cells were serum starved overnight. Increasing concentrations of test compounds were added along with EC20 of acetylcholine in OptiMEM medium to the cells. The incubation was continued at 37° C. in CO2 incubator for 4 hours. Medium was removed and cells were washed with phosphate buffered saline. The cells were lysed and luciferase activity was measured in a Luminometer. Luminescence units were plotted against the compound concentrations using Graphpad software. EC50 values of the compounds were defined as the concentration required in stimulating the luciferase activity by 50% in presence of EC20 of acetylcholine and the results are provided in table 1.

SMILES: Cn1ccc2c(Cc3ccnc(Cl)c3)cc(C(=O)N[C@H]3CCCC[C@@H]3O)nc21
- EC50: 570 nM
